Results published in patent publication US20050289662A1, “Reporter system for plants” (published 2005).
This is a selection: effects in other tests are not listed, and their absence says nothing.

Test system: E. Coli (C), Pseudomonas putita (PU), Pseudomonas sydngae (SY), Pseudomonas fluorescens (FL)
Experiment: Bacterial cells grown on LB plates with increasing concentrations of TNT and RDX

## O=[N+]([O-])N1CN([N+](=O)[O-])CN([N+](=O)[O-])C1
  resistance of bacteria towards the explosives: PU and FL show more resistance

## Cc1c([N+](=O)[O-])cc([N+](=O)[O-])cc1[N+](=O)[O-]
  resistance of bacteria towards the explosives: PU and FL show more resistance
